We go through 4 compounds from patent US20260193264A1, “BENZOYPARAZINE PYRAZINES AND THEIR USES” (FOGHORN THERAPEUTICS INC., priority 2022, published 2026).

Amino acid sequences for entries named in this document (tags omitted).
UniProt P51532, whole entry: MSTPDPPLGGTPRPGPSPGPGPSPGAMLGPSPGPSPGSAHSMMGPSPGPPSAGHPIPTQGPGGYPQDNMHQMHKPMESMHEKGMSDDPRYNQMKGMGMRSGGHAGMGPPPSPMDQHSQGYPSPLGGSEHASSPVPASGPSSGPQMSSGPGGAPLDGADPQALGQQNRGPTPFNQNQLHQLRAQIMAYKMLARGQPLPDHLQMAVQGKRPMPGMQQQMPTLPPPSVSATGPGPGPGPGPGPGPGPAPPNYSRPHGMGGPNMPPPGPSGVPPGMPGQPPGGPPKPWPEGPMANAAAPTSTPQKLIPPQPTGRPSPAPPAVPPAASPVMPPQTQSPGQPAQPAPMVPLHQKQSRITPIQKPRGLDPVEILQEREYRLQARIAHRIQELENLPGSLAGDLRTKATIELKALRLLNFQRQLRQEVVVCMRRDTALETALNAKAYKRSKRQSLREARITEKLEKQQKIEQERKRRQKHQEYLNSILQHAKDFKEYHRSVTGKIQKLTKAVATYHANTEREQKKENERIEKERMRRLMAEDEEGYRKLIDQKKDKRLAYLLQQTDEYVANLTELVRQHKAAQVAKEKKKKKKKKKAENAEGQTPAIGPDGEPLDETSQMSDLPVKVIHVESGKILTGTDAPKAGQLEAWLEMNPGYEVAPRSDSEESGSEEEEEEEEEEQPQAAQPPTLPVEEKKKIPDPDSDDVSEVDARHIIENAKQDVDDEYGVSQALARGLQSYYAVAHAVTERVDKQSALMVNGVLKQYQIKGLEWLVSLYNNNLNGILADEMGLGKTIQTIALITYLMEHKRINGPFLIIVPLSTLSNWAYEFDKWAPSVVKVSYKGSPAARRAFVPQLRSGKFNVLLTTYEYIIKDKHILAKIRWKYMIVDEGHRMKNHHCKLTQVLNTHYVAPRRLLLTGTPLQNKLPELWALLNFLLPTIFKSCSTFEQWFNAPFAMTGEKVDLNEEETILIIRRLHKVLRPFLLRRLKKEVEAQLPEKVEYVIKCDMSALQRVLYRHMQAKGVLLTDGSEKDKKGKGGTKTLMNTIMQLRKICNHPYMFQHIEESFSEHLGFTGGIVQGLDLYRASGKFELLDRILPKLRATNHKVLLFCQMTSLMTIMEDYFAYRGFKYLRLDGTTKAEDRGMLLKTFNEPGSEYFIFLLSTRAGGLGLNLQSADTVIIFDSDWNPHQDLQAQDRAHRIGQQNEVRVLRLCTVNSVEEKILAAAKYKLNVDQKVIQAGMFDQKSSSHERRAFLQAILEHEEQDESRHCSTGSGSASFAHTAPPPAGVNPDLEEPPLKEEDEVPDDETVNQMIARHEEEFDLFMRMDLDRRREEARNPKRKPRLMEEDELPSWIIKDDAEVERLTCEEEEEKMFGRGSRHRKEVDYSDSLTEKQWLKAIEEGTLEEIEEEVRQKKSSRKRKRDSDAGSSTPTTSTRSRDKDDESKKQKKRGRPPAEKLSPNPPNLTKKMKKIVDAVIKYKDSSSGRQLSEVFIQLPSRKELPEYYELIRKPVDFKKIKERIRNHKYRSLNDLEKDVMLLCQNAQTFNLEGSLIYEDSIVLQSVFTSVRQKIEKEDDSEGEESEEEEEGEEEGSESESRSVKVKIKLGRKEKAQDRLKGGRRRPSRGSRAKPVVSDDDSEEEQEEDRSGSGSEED
UniProt P51531, whole entry: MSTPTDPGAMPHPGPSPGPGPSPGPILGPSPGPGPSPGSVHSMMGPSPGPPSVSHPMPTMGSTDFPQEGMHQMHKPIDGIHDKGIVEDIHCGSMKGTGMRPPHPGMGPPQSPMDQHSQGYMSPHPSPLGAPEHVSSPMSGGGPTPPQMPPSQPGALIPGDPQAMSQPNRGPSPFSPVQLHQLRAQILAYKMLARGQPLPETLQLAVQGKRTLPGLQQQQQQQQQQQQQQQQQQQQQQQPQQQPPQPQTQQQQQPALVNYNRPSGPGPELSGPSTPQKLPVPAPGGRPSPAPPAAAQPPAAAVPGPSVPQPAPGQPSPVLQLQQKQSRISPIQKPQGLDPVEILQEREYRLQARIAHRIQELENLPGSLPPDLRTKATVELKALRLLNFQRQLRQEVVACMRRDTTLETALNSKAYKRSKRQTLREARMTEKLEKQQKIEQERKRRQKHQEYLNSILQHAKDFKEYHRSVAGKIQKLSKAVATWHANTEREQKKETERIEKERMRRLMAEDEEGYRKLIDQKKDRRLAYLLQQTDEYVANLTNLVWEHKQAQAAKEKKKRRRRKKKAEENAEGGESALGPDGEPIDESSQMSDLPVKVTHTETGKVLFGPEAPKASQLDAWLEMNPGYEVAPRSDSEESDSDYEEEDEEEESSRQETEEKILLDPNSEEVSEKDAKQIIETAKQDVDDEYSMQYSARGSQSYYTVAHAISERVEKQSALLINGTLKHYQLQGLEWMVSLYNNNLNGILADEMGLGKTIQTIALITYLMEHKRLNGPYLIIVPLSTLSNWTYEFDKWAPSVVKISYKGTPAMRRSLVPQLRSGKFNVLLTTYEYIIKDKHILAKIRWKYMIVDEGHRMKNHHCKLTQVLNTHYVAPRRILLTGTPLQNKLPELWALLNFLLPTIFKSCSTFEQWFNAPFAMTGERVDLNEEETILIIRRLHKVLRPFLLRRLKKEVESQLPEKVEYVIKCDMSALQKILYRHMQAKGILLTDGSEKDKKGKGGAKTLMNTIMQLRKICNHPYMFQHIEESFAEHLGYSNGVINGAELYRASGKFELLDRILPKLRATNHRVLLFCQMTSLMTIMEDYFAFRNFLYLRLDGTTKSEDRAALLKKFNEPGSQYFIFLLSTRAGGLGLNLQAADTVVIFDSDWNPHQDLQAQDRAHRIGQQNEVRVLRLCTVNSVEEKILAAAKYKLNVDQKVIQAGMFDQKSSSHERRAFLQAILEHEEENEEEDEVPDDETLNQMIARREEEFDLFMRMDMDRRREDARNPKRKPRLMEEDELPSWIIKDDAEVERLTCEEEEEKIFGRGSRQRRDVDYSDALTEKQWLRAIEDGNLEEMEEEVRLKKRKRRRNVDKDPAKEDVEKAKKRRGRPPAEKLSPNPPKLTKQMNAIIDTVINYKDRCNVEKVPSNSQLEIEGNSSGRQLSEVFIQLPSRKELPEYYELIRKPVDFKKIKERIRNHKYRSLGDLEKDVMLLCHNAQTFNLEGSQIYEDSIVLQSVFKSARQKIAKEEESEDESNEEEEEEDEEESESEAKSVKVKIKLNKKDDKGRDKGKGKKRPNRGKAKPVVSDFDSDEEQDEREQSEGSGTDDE

Test [1] has as its target HiBit-BRG1 fusion protein in stable HeLa cell line expressing HiBit-BRG1 and LgBit (Homo sapiens, UniProt P51532). The test is described as follows: HiBiT-BRG1 cell-based degradation assay (Nano-Glo HiBiT, 24 h). The settings on record: for BRG1 HiBit Degradation Maximum (%): HeLa HiBit-BRG1/LgBit cells, top dose 30 μM; for IC50: read-out: BRMG1 HiBit Degradation IC50, HeLa HiBit-BRG1/LgBit cells.

Test [2] has as its target HiBiT-BRM fusion protein in stable HeLa cell line (Homo sapiens, UniProt P51531). The test is described as follows: HiBiT-BRM cell-based degradation assay (Nano-Glo HiBiT Lytic Detection, 24 h). Particulars: for BRM HiBit Degradation Maximum (%): HeLa HiBiT-BRM cells, top dose 30 μM; for IC50: read-out: BRM HiBit Degradation IC50, HeLa HiBiT-BRM cells. On the procedure:
Procedure: A stable HeLa cell line expressing HiBiT-BRM was generated. On day 0, 5000 cells were seeded in 40 μL of media into each well of 384-well cell culture plates. On day 1, cells were treated with 120 nL DMSO or 120 nL of 3-fold serially DMSO-diluted compounds (10 points in duplicate with 30 μM as final top dose). Subsequently plates were incubated for 24 h in a standard tissue culture incubator and equilibrated at room temperature for 15 minutes. Nano-Glo HiBiT Lytic Detection System (Promega N3050) reagent was freshly prepared and 20 ul was added to each well. Upon addition of this LgBit-containing reagent, the HiBiT and LgBiT proteins associate to form the luminescent NanoBiT luciferase. The plates were shaken for 10 minutes at room temperature and the bioluminescence read using an EnVision plate reader (PerkinElmer).
The degradation % was calculated using the following formula: % degradation=100%−100%×(Lumsample−LumLC)/(LumHC−LumLC). DMSO treated cells are employed as High Control (HC) and 2 μM of a known BRM/BRG1 degrader standard treated cells are employed as Low Control (LC).

On to `Cc1ncsc1-c1ccc(CNC(=O)[C@@H]2C[C@@H](O)CN2C(=O)[C@@H](c2cc(-c3ccc4nnc(-c5ccccc5O)cc4c3)no2)C(C)C)cc1`, for which, in test [1], the “BRG1 HiBit Degradation Maximum (%)” value is recorded as “A (“A” indicates maximum degradation ≥75%)” and the IC50 is less than 0.01 µM. Further, in test [2], the “BRM HiBit Degradation Maximum (%)” value is reported as “A (“A” indicates maximum degradation ≥75%)” and the IC50 was less than 0.01 µM.
As for `Cc1ncsc1-c1ccc([C@H](C)NC(=O)[C@@H]2C[C@@H](O)CN2C(=O)[C@@H](c2cc(N3CCN([C@H]4CCN(Cc5ccc6cc(-c7ccccc7O)nnc6c5)CC4(F)F)CC3)no2)C(C)C)cc1`, the “BRG1 HiBit Degradation Maximum (%)” value in test [1] is on record as “C (“C” indicates maximum degradation <50%)”. In test [2], the “BRM HiBit Degradation Maximum (%)” value is on record as “A (“A” indicates maximum degradation ≥75%)” and the IC50 was less than 0.01 µM.
For the compound `Cc1ncsc1-c1ccc([C@H](C)NC(=O)[C@@H]2C[C@@H](O)CN2C(=O)[C@@H](c2cc(N3CCN([C@@H]4CCN(Cc5ccc6cc(-c7ccccc7O)nnc6c5)CC4(F)F)CC3)no2)C(C)C)cc1`, in test [1], the “BRG1 HiBit Degradation Maximum (%)” value is recorded as “C (“C” indicates maximum degradation <50%)”. Further, in test [2], the “BRM HiBit Degradation Maximum (%)” value is “A (“A” indicates maximum degradation ≥75%)” and the IC50 was less than 0.01 µM.
Turning to `Cc1cc2nnc(-c3ccccc3O)cc2cc1-c1cn([C@H](C(=O)N2C[C@H](O)C[C@H]2C(=O)N[C@@H](C)c2ccc(-c3scnc3C)cc2)C(C)C)nn1`, in test [1], the “BRG1 HiBit Degradation Maximum (%)” value is “A (“A” indicates maximum degradation ≥75%)” and the IC50 is less than 0.01 µM. In test [2], the “BRM HiBit Degradation Maximum (%)” value is given as “A (“A” indicates maximum degradation ≥75%)” and the IC50 is less than 0.01 µM.
